Measurements: ChEMBL document CHEMBL6087423, “Grafting a chromophore on AMD070 analogues for CXCR4 bioimaging: Chemical synthesis and in vitro assessment of the inhibition properties of the CXCR4 receptor” (Bioorg Med Chem Lett, 2025)

By UniProt entry, the sequences of proteins in these tests, tags left out.
UniProt P61073, whole entry: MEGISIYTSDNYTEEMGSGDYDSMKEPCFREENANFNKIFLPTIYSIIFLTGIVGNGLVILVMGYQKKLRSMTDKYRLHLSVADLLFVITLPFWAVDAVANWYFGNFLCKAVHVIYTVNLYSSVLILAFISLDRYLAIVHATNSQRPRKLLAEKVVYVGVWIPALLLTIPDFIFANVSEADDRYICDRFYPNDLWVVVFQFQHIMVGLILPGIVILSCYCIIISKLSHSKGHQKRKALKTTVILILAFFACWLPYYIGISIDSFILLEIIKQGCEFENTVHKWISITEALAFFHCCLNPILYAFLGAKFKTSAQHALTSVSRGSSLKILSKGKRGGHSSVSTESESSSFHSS

Target: C-X-C chemokine receptor type 4 (Homo sapiens, UniProt P61073)
Assay: Inhibition of 12G5-PE binding to CXCR4 in human U266B1 cells assessed as cell viability incubated for 1 hr by DAPI staining based flow cytometric analysis

NCCCCN(Cc1nc2ccccc2[nH]1)C1CCCc2cccnc21 (stereo unspecified)
IC50: 57.5 nM
